Experimental findings from patent US6194450A, “Polyaromatic heterocyclic compounds and pharmaceutical compositions comprised thereof” (Centre International de Recherches Dermatologiques Galderma, priority 1995, dated 2001) are described below.

SMILES strings stand for the structures.

This test concerns mouse embryonic teratocarcinoma F9 cells. The test can be described thus: Differentiation of mouse embryonic teratocarcinoma F9 cells (plasminogen activator secretion). It counts as cell-based. Particulars: concentration producing half of the maximum amount of plasminogen activator secreted. From the text: Their activities may also be measured in tests of cell transactivation using pretransfected recombinant RAR or RXR receptors (B. A. Bernard et al, Biochemical and Biophysical Research Communication, vol. 186, 977-983 (1992); M. F. Boehm et al, Journal of Medicinal Chemistry, 37, 408-414 (1994)).
(a) After treatment with the compounds indicated, the mouse embryonic teratocarcinoma F9 cells differentiated into endodermal cells. This differentiation was characterized by the secretion of the plasminogen activator into the culture medium. The activity of the compound is expressed by the AC50 value, which represents the concentration of test compound which produces half of the maximum amount of plasminogen activator secreted.

The term AC50 denotes the midpoint of the concentration-response curve, whichever way the signal moves. Read a low AC50 as activity at low concentration. In turn, `COc1ccc(C2=Cc3ccc(C(=O)O)cc3OC2)cc1C12CC3CC(CC(C3)C1)C2` [Example 1, 3-[(3-(1-adamantyl)-4-methoxyphenyl)-2H-1-benzopyran]-7-carboxylic acid] returned a concentration at half-maximal activity (AC50) of 34 nM. This counts as double-digit nanomolar.
